## Binding of CDR-mutated scFvs to a peptide of the spike HR2 region

Target peptide (SARS-CoV-2 spike, HR2 region): PDVDLGDISGINAS

Parent scFv Ab-14: VH joined to VL by a 15-residue (Gly4Ser)3 linker. Changes lie in the light chain CDRs alone.
VH: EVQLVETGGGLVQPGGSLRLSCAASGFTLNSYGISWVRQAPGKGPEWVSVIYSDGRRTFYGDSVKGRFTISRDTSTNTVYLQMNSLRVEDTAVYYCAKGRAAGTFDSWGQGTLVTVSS
VL: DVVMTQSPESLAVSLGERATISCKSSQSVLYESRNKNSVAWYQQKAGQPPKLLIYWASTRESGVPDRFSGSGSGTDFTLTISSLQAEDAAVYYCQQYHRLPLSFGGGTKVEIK

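The starting antibody came from a phage panning campaign against this peptide. These sequences belong to a second round, designed from the earlier measurements on random variants of the parent. Their group label is 14L_Ctrl (Ctrl: baseline library sampled from a position-specific scoring matrix, with some repeated check sequences). The scFvs were displayed on barcoded MATa yeast, the peptide on MATalpha yeast. Mating (16 h, 30 °C) was followed by selection of diploids and sequencing of their barcodes. Read counts were normalised to the haploid input and turned into Kd by a linear fit to BCL2-family pairs of known affinity, for each replicate. Mating was done six times.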

Substitutions are numbered in sequence along the VL above, starting at 1 (not Kabat). Numbers give log10(Kd / nM), so 0 is 1 nM and 3 is 1 µM. Smaller is tighter. Replicates are averaged; those with no signal do not enter the mean. A pair that was not seen in that replicate is written "nd"; this usually means weak binding, but a binder can also be missed. The authors' rule: three or more of the six replicates give a measured affinity, fewer mean a poor binder.

changes | log10 Kd (nM) by replicate | mean, log10 nM | control signals
Y31H+W56Q | 1.17 / 1.96 / 1.68 / 1.64 / 2.10 / 1.71 | 1.71 | 0 of 18
S25L+V29Q+W56A+R99A | 0.67 / 0.27 / 0.18 / -0.27 / -0.05 / 0.21 | 0.17 | 0 of 18
S26T+W56N+Q95V | nd / nd / nd / nd / nd / nd | nd | 2 of 18 (2.91)
V29G+N37S+V39G+S62M+L102G | nd / nd / nd / nd / nd / nd | nd | 0 of 18
S25Q+K36C+W56S+Q96D | 0.79 / 1.17 / 0.94 / 1.00 / 0.76 / 1.40 | 1.01 | 0 of 18
W56N+Q95D | 1.89 / 1.33 / 0.98 / 1.14 / 1.40 / 1.27 | 1.34 | 2 of 18 (3.22)
S33T+S38H+W56A | 1.08 / 0.35 / 0.25 / 0.22 / 0.22 / 1.19 | 0.55 | 1 of 18 (1.67)
K36Q+W56G+L102H | -0.03 / -0.22 / 0.20 / 0.19 / -0.14 / 0.25 | 0.04 | 1 of 18 (2.21)
K24Q+T59L | nd / nd / nd / nd / nd / nd | nd | 0 of 18
R34T+N37Q+W56H+L102T | nd / nd / nd / 2.46 / 2.52 / nd | 2.49 | 3 of 18 (2.91)
K36V+W56G+A57G+E61I+S62M+S103Y | 0.93 / 1.02 / 0.53 / 0.45 / 0.42 / 0.74 | 0.68 | 0 of 18
K24H+S25I+Q95A+H98M+L102P | 1.45 / 1.43 / 1.04 / 1.28 / 1.51 / 1.92; nd / nd / nd / nd / nd / nd; nd / nd / nd / nd / nd / 2.47; nd / nd / nd / nd / nd / nd; nd / nd / nd / nd / nd / nd | 1.58 | 1 of 90 (4.27)
K24R+Y31V+S33E+W56S+E61T | 0.75 / 0.61 / 0.33 / 0.17 / 0.44 / 0.65 | 0.49 | 2 of 18 (2.32)
S25I+W56E+S58A+S62G+S103I | 0.39 / 0.04 / 0.07 / 0.20 / 0.31 / 0.30 | 0.22 | 1 of 18 (3.34)
K24R+E32T+S33H+N37Q | nd / nd / nd / nd / nd / nd | nd | 0 of 18
E32D+R34S | nd / nd / nd / 0.40 / nd / nd | 0.40 | 0 of 18
V39I+W56S+E61T+Q96A+S103E | 1.23 / 0.99 / 0.86 / 0.66 / 1.08 / 1.97 | 1.13 | 0 of 18
V29M+R34Y+N35E | 1.42 / 1.41 / 2.16 / 1.31 / 2.21 / 2.68 | 1.86 | 0 of 18
Q27V+S28N+Y31A+T59Q | 3.11 / 2.45 / 2.47 / 1.83 / 1.35 / 1.47 | 2.12 | 0 of 18
S33K+W56Y+Y97G+L100P | nd / nd / 2.01 / nd / nd / nd | 2.01 | 1 of 18 (3.19)
S25T+S33E+W56A+T59C | 0.95 / 1.16 / 0.82 / 1.00 / 0.71 / 1.53 | 1.03 | 0 of 18
Y31M+E32D | 1.36 / 1.79 / 1.20 / 1.17 / 1.55 / 1.05 | 1.35 | 0 of 18
S26H+Q27H+W56G | 0.37 / 0.38 / 0.26 / 0.41 / 0.35 / 0.29 | 0.35 | 4 of 18 (3.66)
Q27F+K36A | 2.06 / 1.99 / 2.42 / 1.81 / nd / 1.58 | 1.97 | 1 of 18 (2.10)
S25Y+N35S+L100M | 3.12 / 2.30 / nd / 1.59 / 2.15 / nd | 2.29 | 0 of 18
K24M+Q27K+W56G | 0.57 / 0.41 / 0.52 / 0.54 / 0.66 / 0.47 | 0.53 | 2 of 18 (2.98)
S25F+V29N+Y31P+H98F+S103P | 2.63 / 1.13 / 1.97 / 2.30 / 1.81 / 3.25 | 2.18 | 1 of 18 (2.25)
Y31N | 2.40 / 2.40 / 2.59 / 2.01 / 2.21 / 3.68 | 2.55 | 1 of 18 (4.01)
S25V+S33A+R34H+S103Y | 1.21 / 1.17 / 1.38 / 1.39 / 1.26 / 1.54 | 1.32 | 0 of 18
S25Q+S26G+K36A | nd / nd / 2.84 / nd / 3.19 / nd | 3.01 | 0 of 18
E32A+W56Y+E61H+L100A | nd / nd / nd / nd / nd / nd | nd | 1 of 18 (2.36)
W56N+R99M | 0.91 / 0.76 / 0.62 / 0.47 / 0.42 / 0.75 | 0.66 | 0 of 18
S25L+S26C+V29M+W56M+H98L | 1.00 / 0.91 / 1.01 / 0.99 / 1.24 / 0.65 | 0.97 | 2 of 18 (2.43)
L30F+W56G+S62V | 0.57 / 0.18 / 0.29 / 0.15 / -0.03 / 0.60 | 0.29 | 0 of 18
Q27V+Y31H | nd / 2.80 / nd / nd / 2.70 / nd | 2.75 | 0 of 18
V29K+Y31G | nd / nd / nd / nd / 3.04 / nd | 3.04 | 0 of 18
L30D+S33G+S58G+Q96H | nd / nd / nd / 3.86 / nd / nd | 3.86 | 0 of 18
S38D+W56M+H98N | nd / nd / nd / nd / nd / nd | nd | 0 of 18
S25M+V29Y | 0.21 / 0.33 / 0.46 / 0.32 / 0.09 / 0.11 | 0.25 | 3 of 18 (1.70)

Excerpt, the final 4 entries:

changes,log10 Kd (nM) by replicate,"mean, log10 nM",control signals
V29K+Y31G,nd / nd / nd / nd / 3.04 / nd,3.04,0 of 18
L30D+S33G+S58G+Q96H,nd / nd / nd / 3.86 / nd / nd,3.86,0 of 18
S38D+W56M+H98N,nd / nd / nd / nd / nd / nd,nd,0 of 18
S25M+V29Y,0.21 / 0.33 / 0.46 / 0.32 / 0.09 / 0.11,0.25,3 of 18 (1.70)

A sequence that the file lists under several names has all its replicates listed entry by entry, parted by semicolons. The parent sequence was in this pool as ten entries: three were never detected, three once, and four in most replicates, with averages from 0.34 to 2.37. Three control strains display no target. For all light chain designs, 4% of the pairings with them gave a signal, with a median of 2.64 and one signal in twenty below 1.59, so weak values seen in few replicates may be background. Also given: how often the same scFv was detected with the empty control strains, with their mean in brackets. The range of this assay differs from that of the first round, and the authors advise against merging the two.

Values reported by Li et al. 2023, doi:10.1038/s41467-023-39022-2 (FLAb copy).